Measured values published in PubChem BioAssay AID1272365 (Small Molecule Screening Facility, UW Madison, 2020).
This is a selection; strong and weak results do not stand in their true shares. Some of these compounds have results that are not shown, active ones among them. Calls of active or inactive are those of the source. Cut-off read from the data, not from the text of the source: active = inhibition mostly above about 37% (no sharp cut-off); inactive = mostly below about 20%.

Test system: PriA–SSB C-terminal tail interaction (Klebsiella pneumoniae)
Experiment: inhibitors of Klebsiella pneumoniae PriA binding to SSB C-terminal tail, primary screen, biochemical, AlphaScreen (AID 1272365);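 note: plate controls were negative control peptide for no effect and reference peptide for full effect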
Settings: AlphaScreen SSBct-PriA binding, biotinylated peptide; at 33 µM; active compounds read high

Structure (SMILES) | inhibition
CN(C)CCOC(=O)C(O)(c1ccccc1)C1CCCCC1 (stereo not given) | inactive: -9.31%
O=C(NCC1(N2CCCCC2)CCCCC1)c1cc(F)c(F)cc1Cl | inactive: 7.42%
COc1ccc(C(=O)NCC2(N(C)C)CCCCC2)cc1 | inactive: -8%
CCN1CCCC(OC(=O)C2(O)c3ccccc3C=Cc3ccccc32)C1 (stereo not given) | inactive: -11.8%
Cc1cc(C(=O)NCC2(N3CCCCC3)CCCCC2)ccc1[N+](=O)[O-] | inactive: -5.61%
O=C(NCC1(N2CCCCC2)CCCCC1)c1cccc(Br)c1 | inactive: -3.56%
Cc1ccccc1C(=O)NCC1(N2CCCCC2)CCCCC1 | inactive: -10.1%
CN(C)c1ccc(C(=O)NCC2(N(C)C)CCCCC2)cc1 | inactive: 10.6%
CN(C)C1CCCC1OC(=O)C(O)(c1ccccc1)c1ccccc1 (stereo not given) | inactive: -13.2%
CCN(CC)CC(C)C(C)OC(=O)C(O)(c1ccccc1)c1ccccc1 (stereo not given) | inactive: -8.07%
COc1cc(SC)ccc1C(=O)NCC1(N(C)C)CCCCC1 | inactive: 3.43%
Cc1ccc(C(=O)NCC2(N3CCCCC3)CCCCC2)cc1 | inactive: 15.5%
O=C(NCC1(N2CCCCC2)CCCCC1)c1cc([N+](=O)[O-])ccc1Cl | inactive: 4.89%
CN1[C@@H]2CC[C@H]1CC(OC(=O)C(O)(c1ccccc1)c1ccccc1)C2 (stereo not given in full) | inactive: -3.53%
COc1ccc(Br)c(C(=O)NCC2(N3CCCCC3)CCCCC2)c1 | inactive: 2.23%
CC(C)Oc1ccc(C(=O)NCC2(N(C)C)CCCCC2)cc1 | inactive: -1.53%
O=C(OCCN1CCCC1)C(O)(c1ccccc1)c1ccccc1 | inactive: -3.71%
CN(C)c1cccc(C(=O)NCC2(N(C)C)CCCCC2)c1 | inactive: -8.16%
CCN(CC)CCCOC(=O)C(O)(c1ccccc1)c1ccccc1 | inactive: -8.15%
O=C(OC1CN2CCC1CC2)C(CO)(c1ccccc1)c1ccccc1 (stereo not given) | inactive: -1.96%
COc1cccc(C(=O)NCC2(N3CCCCC3)CCCCC2)c1 | inactive: 5.7%
COc1ccc(Cl)cc1C(=O)NCC1(N(C)C)CCCCC1 | inactive: 3.43%
O=C(NCC1(N2CCCCC2)CCCCC1)c1cccc(Cl)c1 | inactive: -7.94%
CN(C)C1(CNC(=O)c2ccc(Br)cc2)CCCCC1 | inactive: 4.1%
COc1cc(C(=O)NCC2(N(C)C)CCCCC2)c([N+](=O)[O-])cc1OC | inactive: -7.42%
